Measured values taken from patent publication US20250066350A1, “AROMATIC HETEROCYCLE-SUBSTITUTED COMPOUNDS, AND PREPARATION METHOD THEREFOR AND USE THEREOF” (Innovstone Therapeutics Limited, priority 2021, published 2025).

Sequences of proteins named here, by UniProt entry; tags and fusion partners are left off.
UniProt Q13535, whole entry: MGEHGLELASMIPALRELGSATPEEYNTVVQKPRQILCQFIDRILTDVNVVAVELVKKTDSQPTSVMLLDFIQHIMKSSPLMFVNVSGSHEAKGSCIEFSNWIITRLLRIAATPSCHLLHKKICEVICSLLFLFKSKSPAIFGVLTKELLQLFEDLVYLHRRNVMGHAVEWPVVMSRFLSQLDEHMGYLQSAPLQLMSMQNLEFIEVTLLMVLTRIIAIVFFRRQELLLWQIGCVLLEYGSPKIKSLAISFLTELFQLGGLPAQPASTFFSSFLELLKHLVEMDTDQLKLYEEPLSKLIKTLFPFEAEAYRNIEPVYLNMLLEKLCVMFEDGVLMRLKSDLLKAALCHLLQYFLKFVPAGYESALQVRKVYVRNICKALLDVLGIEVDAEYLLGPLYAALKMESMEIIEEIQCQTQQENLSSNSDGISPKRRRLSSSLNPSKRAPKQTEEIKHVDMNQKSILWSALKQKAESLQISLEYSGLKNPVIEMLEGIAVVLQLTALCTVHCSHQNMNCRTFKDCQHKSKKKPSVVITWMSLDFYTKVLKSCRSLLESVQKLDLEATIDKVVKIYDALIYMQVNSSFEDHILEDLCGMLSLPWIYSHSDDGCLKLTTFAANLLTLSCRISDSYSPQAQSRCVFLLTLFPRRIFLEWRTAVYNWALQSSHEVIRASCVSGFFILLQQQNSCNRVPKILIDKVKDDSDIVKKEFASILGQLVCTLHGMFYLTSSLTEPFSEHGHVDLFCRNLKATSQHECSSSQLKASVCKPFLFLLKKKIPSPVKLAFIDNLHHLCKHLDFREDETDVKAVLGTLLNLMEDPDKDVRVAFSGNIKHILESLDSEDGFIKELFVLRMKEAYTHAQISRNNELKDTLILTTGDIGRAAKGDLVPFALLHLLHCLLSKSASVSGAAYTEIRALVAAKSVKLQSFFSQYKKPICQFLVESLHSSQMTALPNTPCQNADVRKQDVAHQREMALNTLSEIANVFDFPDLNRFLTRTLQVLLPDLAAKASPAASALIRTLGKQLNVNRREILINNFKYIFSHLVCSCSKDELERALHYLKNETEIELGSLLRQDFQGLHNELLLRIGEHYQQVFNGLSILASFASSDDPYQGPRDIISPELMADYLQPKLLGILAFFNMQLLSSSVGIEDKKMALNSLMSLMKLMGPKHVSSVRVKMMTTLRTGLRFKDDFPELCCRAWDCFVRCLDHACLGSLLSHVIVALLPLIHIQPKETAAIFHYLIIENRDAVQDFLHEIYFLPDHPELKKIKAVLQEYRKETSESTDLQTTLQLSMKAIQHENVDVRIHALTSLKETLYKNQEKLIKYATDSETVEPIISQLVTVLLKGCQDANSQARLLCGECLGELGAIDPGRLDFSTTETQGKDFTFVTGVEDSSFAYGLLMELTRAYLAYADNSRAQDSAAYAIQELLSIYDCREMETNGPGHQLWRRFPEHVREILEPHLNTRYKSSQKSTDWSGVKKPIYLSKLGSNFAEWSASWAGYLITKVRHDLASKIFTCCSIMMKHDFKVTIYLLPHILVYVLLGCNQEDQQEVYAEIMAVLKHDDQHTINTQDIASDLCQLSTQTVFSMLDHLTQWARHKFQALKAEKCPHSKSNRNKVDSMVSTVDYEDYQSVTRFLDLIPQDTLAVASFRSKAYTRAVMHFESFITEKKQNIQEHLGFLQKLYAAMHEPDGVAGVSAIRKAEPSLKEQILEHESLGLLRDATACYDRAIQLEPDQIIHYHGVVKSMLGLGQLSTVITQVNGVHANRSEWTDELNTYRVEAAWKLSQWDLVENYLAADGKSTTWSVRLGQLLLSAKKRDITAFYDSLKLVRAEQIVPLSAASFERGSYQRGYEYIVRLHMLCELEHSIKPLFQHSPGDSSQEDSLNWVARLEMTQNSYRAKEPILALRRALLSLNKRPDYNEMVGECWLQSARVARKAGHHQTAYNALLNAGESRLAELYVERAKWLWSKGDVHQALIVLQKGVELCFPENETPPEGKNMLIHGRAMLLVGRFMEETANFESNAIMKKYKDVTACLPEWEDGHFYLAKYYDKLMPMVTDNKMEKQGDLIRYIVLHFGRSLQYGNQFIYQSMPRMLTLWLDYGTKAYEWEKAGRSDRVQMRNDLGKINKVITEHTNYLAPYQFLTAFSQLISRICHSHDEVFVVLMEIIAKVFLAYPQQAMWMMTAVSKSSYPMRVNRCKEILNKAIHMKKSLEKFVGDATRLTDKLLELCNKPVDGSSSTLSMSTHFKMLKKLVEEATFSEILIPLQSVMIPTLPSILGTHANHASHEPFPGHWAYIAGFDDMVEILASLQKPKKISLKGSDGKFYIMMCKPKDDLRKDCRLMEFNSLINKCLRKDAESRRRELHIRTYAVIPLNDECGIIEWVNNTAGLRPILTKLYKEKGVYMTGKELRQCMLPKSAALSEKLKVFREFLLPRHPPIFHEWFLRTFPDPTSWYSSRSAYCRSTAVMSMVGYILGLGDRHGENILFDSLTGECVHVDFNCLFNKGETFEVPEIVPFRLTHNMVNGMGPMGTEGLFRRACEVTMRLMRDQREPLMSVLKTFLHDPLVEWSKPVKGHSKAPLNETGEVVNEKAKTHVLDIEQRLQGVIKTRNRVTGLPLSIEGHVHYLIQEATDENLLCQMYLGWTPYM
UniProt Q8WXE1, whole entry partner: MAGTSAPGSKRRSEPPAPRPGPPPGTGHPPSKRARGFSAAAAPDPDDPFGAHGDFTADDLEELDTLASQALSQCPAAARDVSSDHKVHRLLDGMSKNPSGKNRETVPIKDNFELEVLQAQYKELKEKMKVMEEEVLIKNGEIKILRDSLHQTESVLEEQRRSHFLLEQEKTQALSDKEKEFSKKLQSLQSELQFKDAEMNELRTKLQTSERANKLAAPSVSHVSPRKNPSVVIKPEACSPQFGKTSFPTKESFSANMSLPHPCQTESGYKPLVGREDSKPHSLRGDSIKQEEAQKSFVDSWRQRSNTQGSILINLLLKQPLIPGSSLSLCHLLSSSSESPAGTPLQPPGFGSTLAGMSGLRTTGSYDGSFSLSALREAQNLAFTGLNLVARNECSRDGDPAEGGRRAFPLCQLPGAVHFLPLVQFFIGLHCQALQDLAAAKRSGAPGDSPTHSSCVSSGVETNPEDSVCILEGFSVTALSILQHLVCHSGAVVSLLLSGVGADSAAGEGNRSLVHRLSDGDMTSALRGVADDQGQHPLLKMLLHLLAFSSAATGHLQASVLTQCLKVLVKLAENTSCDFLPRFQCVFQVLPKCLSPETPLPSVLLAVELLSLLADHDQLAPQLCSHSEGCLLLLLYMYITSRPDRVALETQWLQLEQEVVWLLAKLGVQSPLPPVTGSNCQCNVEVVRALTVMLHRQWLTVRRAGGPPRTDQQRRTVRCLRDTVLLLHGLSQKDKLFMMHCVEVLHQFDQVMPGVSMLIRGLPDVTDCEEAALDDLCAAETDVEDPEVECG

Biological target: ATR enzyme (Homo sapiens (Human), UniProt Q13535)
Experiment: Inhibitory effect on ATR enzyme (HTRF, phospho-P53)
Details: read-out: IC50 for ATR enzyme inhibition; 90 minutes incubation, 150 nM ATP final
Description: Test Example 1. Inhibitory Effect of Compounds of the Present Invention on ATR Enzyme
The following method is used to determine the inhibitory effect of the compounds of the present invention on the ATR enzyme. The experimental method is briefly described as follows:
1. ATR enzyme (Eurofins Pharma Discovery Services, 14-953M)
2. GST-tagged P53 protein (Eurofins Pharma Discovery Services, 14-952M)
15 nM ATR enzyme, 80 nM P53 protein, 300 nM ATP (the final concentrations were 40 nM and 150 nM, respectively), and small molecule compounds of various concentrations (the final concentrations (nM) of the ten points were 2985.0, 895.5, 298.5, 110.56, 33.17, 11.06, 4.09, 1.23, 0.41 and 0.15, respectively, and the final dimethyl sulfoxide concentration was 0.498%) were mixed and incubated at room temperature for 90 minutes. 10 μL of 2× cocktail buffer was added to the mixture of ATR, compound and substrate in the assay plate (anti-phospho-p53-Eu and anti-GST-d2 were diluted in the assay buffer). […] The FRET signal (endpoint) was measured in the Envision instrument (HTRF 665/612 ratio was calculated at 665 nm emission and 612 nm emission). […]
The inhibitory activity of the compounds of the present invention on the ATR enzyme can be determined by the test described above, and the measured IC50 values are shown in Table 1.

- IC50: 10 to 50 nM
SMILES: CNC(=O)C#Cc1cc(N2CCOC[C@H]2C)nc2c1cnn2-c1cc[nH]n1
